The values below are quoted from earlier work in PMC3653948, “PDZ Domain-Mediated Interactions of G Protein-Coupled Receptors with Postsynaptic Density Protein 95: Quantitative Characterization of Interactions” (PLoS ONE, 2013).

pKd: −log10 of the molar value.

The term pKd denotes −log10 of the Kd, conventionally taken in molar units.

The target in the series is CFTR (Homo sapiens) (UniProt P13569). The conditions noted are these: cited from earlier work.

Take CAL PDZ (from UniProt Q9HD26): the pKd is less than 3.22.
